Values of other authors, collected in patent US20080306035A1, “Methods and Compositions for Treating Female Infertility Using Clomiphene” (priority 2005, published 2008).

Settings: following a single dose

Which “duration of residual blood levels” value does the source give for cis-clomiphene here?
Its value is “one”.
